Antibody variant affinities, Ab-14 heavy chain, assay 1

The measurements come from Engelhart et al. 2022 (doi:10.1038/s41597-022-01779-4) through the FLAb antibody collection.

Target peptide (SARS-CoV-2 spike, HR2 region): PDVDLGDISGINAS

Ab-14 is the parent antibody, in scFv form: VH, then a 15-residue (Gly4Ser)3 linker, then VL. The light chain is unchanged in all variants.
VH: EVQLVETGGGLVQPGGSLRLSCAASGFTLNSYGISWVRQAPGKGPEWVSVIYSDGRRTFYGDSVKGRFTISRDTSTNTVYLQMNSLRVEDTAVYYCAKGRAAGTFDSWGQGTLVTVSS
VL: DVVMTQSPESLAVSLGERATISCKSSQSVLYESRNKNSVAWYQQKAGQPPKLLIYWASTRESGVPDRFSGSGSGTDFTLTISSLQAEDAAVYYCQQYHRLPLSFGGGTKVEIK

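The parent was found by panning a naive human phage display library on the peptide. Library AAYL49 holds single substitutions and randomly drawn double and triple substitutions in the CDRs. Affinity was read by AlphaSeq, a pooled yeast mating assay with surface-displayed partners. Mating (16 h, 30 °C) was followed by selection of diploids and sequencing of their barcodes. Scores were corrected for input abundance and mapped to Kd with protein pairs of known affinity run in the same pool. Each pool was mated in three replicate cultures.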

Changes read parent residue, position, new residue, counted from the first residue of the VH shown.
Only single mutants are listed, position by position.
Numbers give log10(Kd / nM), so 0 is 1 nM and 3 is 1 µM. Smaller is tighter.
The mean shown is taken over the replicates in which the pair was detected.
"n.d." means that the variant was in the library but no mating with the target was seen in that replicate; the authors take this as a sign of poor binding, and no number exists.
Nonspecific signal, from three strains lacking the peptide, appeared in 15% of pairings of library AAYL49, centred on 4.06 (5% of these signals below 2.83); values are not corrected for it. For each scFv, signals with the empty controls are counted beside the result, with their mean in brackets.

changes,log10 Kd (nM) by replicate,mean log10 Kd (nM),signal with controls
G33P,6.14 3.24 n.d.,4.69,4/9 (4.02)
G33S,n.d. 4.48 n.d.,4.48,6/9 (3.89)
G33T,4.55 n.d. n.d.,4.55,1/9 (3.03)
I34P,5.92 n.d. n.d.,5.92,0/9
I34Y,n.d. n.d. n.d.,n.d.,1/9 (2.92)
I34R,n.d. 4.66 5.61,5.14,2/9 (4.53)
I34A,3.47 3.63 n.d.,3.55,0/9
I34E,n.d. 3.27 5.66,4.46,0/9
I34V,n.d. n.d. n.d.,n.d.,1/9 (1.35)
I34F,n.d. n.d. n.d.,n.d.,1/9 (3.83)
I34S,n.d. n.d. n.d.,n.d.,1/9 (2.68)
I34W,n.d. n.d. n.d.,n.d.,1/9 (2.90)
I34N,n.d. n.d. n.d.,n.d.,2/9 (3.45)
I34Q,3.35 5.00 n.d.,4.18,1/9 (3.09)
I34L,n.d. n.d. n.d.,n.d.,1/9 (3.58)
I34K,n.d. n.d. n.d.,n.d.,0/9
I34T,2.23 2.39 2.18,2.27,3/9 (4.02)
I34G,n.d. n.d. n.d.,n.d.,0/9
S35H,1.71 1.56 1.93,1.73,1/9 (2.32)
S35Y,5.19 3.82 4.64,4.55,8/9 (4.55)
S35A,n.d. 4.45 n.d.,4.45,1/9 (3.03)
S35F,n.d. n.d. n.d.,n.d.,0/9
S35G,n.d. n.d. n.d.,n.d.,0/9
S35M,n.d. n.d. n.d.,n.d.,2/9 (4.33)
S35I,n.d. n.d. n.d.,n.d.,2/9 (2.45)
S35W,n.d. n.d. n.d.,n.d.,1/9 (4.43)
S35E,6.23 n.d. n.d.,6.23,3/9 (4.23)
S35K,4.50 n.d. n.d.,4.50,1/9 (4.03)
S35D,n.d. n.d. n.d.,n.d.,0/9
S35P,n.d. n.d. n.d.,n.d.,0/9
S35L,4.52 n.d. n.d.,4.52,1/9 (3.94)
S35Q,4.94 4.34 4.61,4.63,7/9 (4.83)
S35N,3.24 2.71 2.94,2.96,3/9 (3.78)
S35R,n.d. n.d. n.d.,n.d.,1/9 (4.65)
S35C,n.d. n.d. n.d.,n.d.,1/9 (4.23)
V50F,n.d. n.d. n.d.,n.d.,1/9 (2.92)
V50K,n.d. n.d. n.d.,n.d.,1/9 (3.07)
V50D,n.d. n.d. n.d.,n.d.,0/9
V50A,n.d. 3.20 4.44,3.82,0/9
V50R,4.69 n.d. n.d.,4.69,0/9
V50T,4.48 3.57 5.31,4.45,2/9 (4.17)
V50L,4.81 3.95 n.d.,4.38,1/9 (3.56)
V50W,n.d. n.d. n.d.,n.d.,0/9
V50P,2.63 n.d. n.d.,2.63,0/9
V50G,4.81 5.55 6.54,5.63,5/9 (4.38)
V50N,n.d. n.d. 4.06,4.06,4/9 (4.05)
V50Q,n.d. n.d. n.d.,n.d.,1/9 (3.03)
V50S,4.29 n.d. n.d.,4.29,2/9 (3.61)

The closing 7 entries, repeated:

{"changes": "V50L", "log10 Kd (nM) by replicate": "4.81 3.95 n.d.", "mean log10 Kd (nM)": "4.38", "signal with controls": "1/9 (3.56)"}
{"changes": "V50W", "log10 Kd (nM) by replicate": "n.d. n.d. n.d.", "mean log10 Kd (nM)": "n.d.", "signal with controls": "0/9"}
{"changes": "V50P", "log10 Kd (nM) by replicate": "2.63 n.d. n.d.", "mean log10 Kd (nM)": "2.63", "signal with controls": "0/9"}
{"changes": "V50G", "log10 Kd (nM) by replicate": "4.81 5.55 6.54", "mean log10 Kd (nM)": "5.63", "signal with controls": "5/9 (4.38)"}
{"changes": "V50N", "log10 Kd (nM) by replicate": "n.d. n.d. 4.06", "mean log10 Kd (nM)": "4.06", "signal with controls": "4/9 (4.05)"}
{"changes": "V50Q", "log10 Kd (nM) by replicate": "n.d. n.d. n.d.", "mean log10 Kd (nM)": "n.d.", "signal with controls": "1/9 (3.03)"}
{"changes": "V50S", "log10 Kd (nM) by replicate": "4.29 n.d. n.d.", "mean log10 Kd (nM)": "4.29", "signal with controls": "2/9 (3.61)"}